Laboratory results as given in patent publication EP0830890A1, “Surfactants for use in liquid/supercritical CO2” (AIR PRODUCTS AND CHEMICALS, INC., priority 1996, dated 1998).

Assays:
[1] = Water uptake by surfactant/CO2 mixture (phase behavior, cloud point); type: physicochemical
Experimental: Utilizing the same phase behavior appartus described in Example 1, a known amount of water was added through a sample loop to a surfactant CO2 mixture of known phase behavior (i.e. its cloud point was first determined). Comparisons were made to water solubilization by pure CO2 and compared to the pure surfactant phase behavior to study the effect the water addition had made, if any, on the measured cloud point for the system.
If the surfactant allowed for the uptake of water, the system would show a single phase at water loadings beyond that normally solubilized by CO2. A cloud point could then be measured for the system, and compared to pure water and pure surfactant phase behavior in CO2.

[2] = Solubility in CO2 by cloud point determination in a variable volume view cell

Substance: Ethoxylated 2,4,7,9-Tetramethyl-5-decyn-4,7-diol [AP-420]
- Wt% of water uptake ([1]; Wt% Surfactant in CO2 0.751, 3110 psi 65°C): 0.277%
- Wt% of water uptake ([1]; Wt% Surfactant in CO2 0.751, 4010 psi 65°C, listed as 20 wt% ethoxylate): 0.553%
- Wt% of water uptake ([1]; Wt% Surfactant in CO2 0.751, 4500 psi 45°C): 0.277%
- Pressure Describing Cloud Point Determinations For Surfactant/CO2Concentrations ([2]; Surfactant Concn. in CO2 1.3646 wt%, 45°C): 2420
- Pressure Describing Cloud Point Determinations For Surfactant/CO2Concentrations ([2]; Surfactant Concn. in CO2 1.3646 wt%, 65°C): 3200
- Pressure Describing Cloud Point Determinations For Surfactant/CO2Concentrations ([2]; Surfactant Concn. in CO2 2.6028 wt%, 25°C): 2180
- Pressure Describing Cloud Point Determinations For Surfactant/CO2Concentrations ([2]; Surfactant Concn. in CO2 2.6028 wt%, 45°C): 3320
- Pressure Describing Cloud Point Determinations For Surfactant/CO2Concentrations ([2]; Surfactant Concn. in CO2 3.2104 wt%, 25°C): 2450
- Pressure Describing Cloud Point Determinations For Surfactant/CO2Concentrations ([2]; Surfactant Concn. in CO2 3.2104 wt%, 45°C): 3320
- Pressure Describing Cloud Point Determinations For Surfactant/CO2Concentrations ([2]; Surfactant Concn. in CO2 3.8330 wt%, 60°C): 3500

Substance: Ethoxylated 2,4,7,9-Tetramethyl-5-decyn-4,7-diol [Surfynol 485]
- Wt% of water uptake ([1]; Wt% Surfactant in CO2 0.237%, 3980 psi 45°C): 0.276%
- Wt% of water uptake ([1]; Wt% Surfactant in CO2 0.237%, 4400 psi 65°C): 0.276%
- Wt% of water uptake ([1]; Wt% Surfactant in CO2 0.237%, 5720 psi 65°C, listed as 85): 0.826%
- Wt% of water uptake ([1]; Wt% Surfactant in CO2 0.237%, 5720 psi 65°C, listed as ethoxylate containing 85 wt% ethylene oxide): 0.826%
- Pressure Describing Cloud Point Determinations For Surfactant/CO2Concentrations ([2]; Surfactant Concn. in CO2 0.2737 wt%, 45°C): 3420
- CO2 solubility (in words) [2]: too insoluble at appreciable quantities to be used in the studies
- CO2 solubility (in words) ([2]; listed as 85): poor CO2 solubility

- Pressure Describing Cloud Point Determinations For Surfactant/CO2Concentrations ([2]; Surfactant Concn. in CO2 0.2486 wt%, 45°C): 2200
- Pressure Describing Cloud Point Determinations For Surfactant/CO2Concentrations ([2]; Surfactant Concn. in CO2 0.8867 wt%, 25°C): 3570
Substance: Ethoxylated 2,4,7,9-Tetramethyl-5-decyn-4,7-diol [AP-465]

- Pressure Describing Cloud Point Determinations For Surfactant/CO2Concentrations ([2]; Surfactant Concn. in CO2 0.6159 wt%, 60°C): 2390
- Pressure Describing Cloud Point Determinations For Surfactant/CO2Concentrations ([2]; Surfactant Concn. in CO2 0.6159 wt%, 65°C): 2490
- Pressure Describing Cloud Point Determinations For Surfactant/CO2Concentrations ([2]; Surfactant Concn. in CO2 1.2484 wt%, 45°C): 3170
- Pressure Describing Cloud Point Determinations For Surfactant/CO2Concentrations ([2]; Surfactant Concn. in CO2 1.2484 wt%, 65°C): 3320
- Pressure Describing Cloud Point Determinations For Surfactant/CO2Concentrations ([2]; Surfactant Concn. in CO2 1.8749 wt%, 25°C): 2360
- Pressure Describing Cloud Point Determinations For Surfactant/CO2Concentrations ([2]; Surfactant Concn. in CO2 1.8749 wt%, 35°C): 3280
- Pressure Describing Cloud Point Determinations For Surfactant/CO2Concentrations ([2]; Surfactant Concn. in CO2 1.8749 wt%, 45°C): 3640
- Pressure Describing Cloud Point Determinations For Surfactant/CO2Concentrations ([2]; Surfactant Concn. in CO2 2.8386 wt%, 35°C): 3490
Substance: Ethoxylated 2,4,7,9-Tetramethyl-5-decyn-4,7-diol [AP-440]

One block for each substance: values may come before it.
